Laboratory results from patent US20250042882A1, “CERTAIN 3-AZABICYCLO[3.1.0]HEXANES AS GLP-1 RECEPTOR MODULATORS” (AstraZeneca AB, priority 2021, published 2025).

Sequences of proteins named here, by UniProt entry; tags and fusion partners are left off.
UniProt Q14432, whole entry: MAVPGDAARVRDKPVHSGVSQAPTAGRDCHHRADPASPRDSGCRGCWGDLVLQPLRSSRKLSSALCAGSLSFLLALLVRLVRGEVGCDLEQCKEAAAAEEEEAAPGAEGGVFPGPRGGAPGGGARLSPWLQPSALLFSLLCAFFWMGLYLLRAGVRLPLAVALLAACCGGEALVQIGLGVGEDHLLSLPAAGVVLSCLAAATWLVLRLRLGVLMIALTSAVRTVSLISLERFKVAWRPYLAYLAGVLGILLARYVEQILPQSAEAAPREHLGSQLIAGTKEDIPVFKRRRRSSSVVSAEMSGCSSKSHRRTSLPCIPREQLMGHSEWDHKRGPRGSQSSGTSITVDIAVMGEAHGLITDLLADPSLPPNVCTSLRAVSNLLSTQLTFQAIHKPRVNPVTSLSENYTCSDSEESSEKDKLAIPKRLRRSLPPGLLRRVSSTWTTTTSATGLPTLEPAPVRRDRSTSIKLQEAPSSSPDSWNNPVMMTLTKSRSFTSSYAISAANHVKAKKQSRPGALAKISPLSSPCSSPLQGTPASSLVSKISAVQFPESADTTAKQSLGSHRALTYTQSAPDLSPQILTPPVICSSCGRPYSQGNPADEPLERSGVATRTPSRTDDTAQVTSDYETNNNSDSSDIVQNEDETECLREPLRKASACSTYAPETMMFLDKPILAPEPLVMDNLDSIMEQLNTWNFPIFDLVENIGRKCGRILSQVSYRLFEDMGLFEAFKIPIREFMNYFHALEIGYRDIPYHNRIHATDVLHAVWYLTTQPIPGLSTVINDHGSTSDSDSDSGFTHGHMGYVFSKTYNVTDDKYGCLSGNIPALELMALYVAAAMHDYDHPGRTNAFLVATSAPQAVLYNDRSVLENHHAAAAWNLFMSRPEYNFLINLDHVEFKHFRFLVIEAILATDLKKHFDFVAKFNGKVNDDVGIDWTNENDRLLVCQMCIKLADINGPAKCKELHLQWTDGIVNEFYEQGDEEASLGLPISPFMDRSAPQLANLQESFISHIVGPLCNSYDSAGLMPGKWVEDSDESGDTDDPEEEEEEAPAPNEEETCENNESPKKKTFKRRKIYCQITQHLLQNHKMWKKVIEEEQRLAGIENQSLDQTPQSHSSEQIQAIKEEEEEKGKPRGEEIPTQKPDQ

Biological target: human phosphodiesterase-3A (Homo sapiens, UniProt Q14432)
Test: PDE3 Assay
Conditions: read-out: PDE3 IC50; human recombinant enzyme expressed in Sf9 cells; formation of 5′AMP from cAMP, SPA
Procedure: Evaluation of the effects of compounds on the activity of the human phosphodiesterase-3A is quantified by measuring the formation of 5′AMP from cAMP using a human recombinant enzyme expressed in a clonal isolate of Spodoptera frugiperda cells (Sf9) cells.
The test compound, reference compound or water (control) are added to a buffer containing 40 mM tris(hydroxymethyl)aminomethane (Tris)/HCl (pH 7.4) and 8 mM MgCl2, 450 nMcAMP and 0.25 μCi [^3H]cAMP.
Thereafter, the reaction is initiated by addition of the enzyme (about 1 U) and the mixture is incubated for 20 min at 22° C.
For basal control measurements, the enzyme is omitted from the reaction mixture.
Following incubation SPA beads are added. After 30 min at 22° C. under shaking, the amount of [^3H]5′AMP is quantified with a scintillation counter (Topcount, Packard).
The results are expressed as a percent inhibition of the control enzyme activity. The standard inhibitory reference compound is milrinone (CAS number 78415-72-2), which is tested in each experiment at several concentrations to obtain an inhibition curve from which its IC50 value is calculated.

- IC50: 5 µM
SMILES: Cc1cc(Cc2nc3ccc(C(=O)O)cc3n2C[C@@H]2CCO2)c(F)cc1-c1cccc(OCc2ccc(C#N)cc2F)n1
